These results are taken from patent US6608061B2, “Bisaryl compound and medicament for cancer treatment comprising the same” (Kyoma Hakko Kogyo Co., Ltd., priority 1997, dated 2003).

Sequences of proteins named here, by UniProt entry; tags and fusion partners are left off.
UniProt P23921, whole entry: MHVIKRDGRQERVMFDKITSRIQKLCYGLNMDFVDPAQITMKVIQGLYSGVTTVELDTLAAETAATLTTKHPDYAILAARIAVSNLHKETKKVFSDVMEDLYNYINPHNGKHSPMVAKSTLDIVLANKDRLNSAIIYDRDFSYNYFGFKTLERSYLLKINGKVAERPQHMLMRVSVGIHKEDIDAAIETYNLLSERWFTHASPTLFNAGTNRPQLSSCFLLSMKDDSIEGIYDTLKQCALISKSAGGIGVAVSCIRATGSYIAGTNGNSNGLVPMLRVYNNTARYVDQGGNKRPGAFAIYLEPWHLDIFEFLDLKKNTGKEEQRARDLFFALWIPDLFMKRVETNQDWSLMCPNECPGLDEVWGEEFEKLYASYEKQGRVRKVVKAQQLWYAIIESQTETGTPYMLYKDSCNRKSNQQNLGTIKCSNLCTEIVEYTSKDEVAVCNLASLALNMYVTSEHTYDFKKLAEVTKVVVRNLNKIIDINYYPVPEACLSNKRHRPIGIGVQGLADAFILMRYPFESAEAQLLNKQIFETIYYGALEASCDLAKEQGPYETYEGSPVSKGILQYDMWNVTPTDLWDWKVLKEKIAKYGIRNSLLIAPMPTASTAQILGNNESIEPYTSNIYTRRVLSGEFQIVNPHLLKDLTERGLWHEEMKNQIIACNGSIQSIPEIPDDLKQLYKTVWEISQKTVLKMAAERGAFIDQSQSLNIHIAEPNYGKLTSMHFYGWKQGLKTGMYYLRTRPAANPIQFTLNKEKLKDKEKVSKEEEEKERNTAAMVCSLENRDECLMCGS
UniProt P31350, whole entry: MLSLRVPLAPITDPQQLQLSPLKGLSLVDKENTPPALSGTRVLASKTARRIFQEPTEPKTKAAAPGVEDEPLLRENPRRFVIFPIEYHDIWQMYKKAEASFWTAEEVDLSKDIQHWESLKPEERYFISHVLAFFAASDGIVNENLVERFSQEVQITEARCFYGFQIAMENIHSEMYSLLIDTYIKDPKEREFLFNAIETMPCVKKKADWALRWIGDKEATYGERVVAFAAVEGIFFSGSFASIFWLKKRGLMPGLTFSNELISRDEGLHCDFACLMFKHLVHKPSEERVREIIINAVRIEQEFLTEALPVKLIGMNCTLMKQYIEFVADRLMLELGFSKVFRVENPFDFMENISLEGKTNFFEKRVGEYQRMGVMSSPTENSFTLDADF

In assay [1] the target is human RNR (purified R1 and R2 subunits) (Homo sapiens, UniProt P23921+P31350). Put plainly: In vitro measurement of human RNR inhibitory activity (conversion of CDP to dCDP, HPLC). The note with it: read-out: RNR Inhibition (IC50), 100 μM CDP, 37° C., 30 minutes. As for the experimental part: Test of Measurement of RNR Inhibitory Activity
(a) Preparation of R1 and R2 subunits of human RNR
(b) In vitro Measurement of Human RNR Inhibitory Activity
By using the above-obtained human RNR subunits, inhibitory activity on the human RNR was tested in vitro. The composition of the reaction mixture is as follows:
50 mM HEPES-NaOH (pH 7.6)
40 ng/ml Purified human RNR R1 subunit, and
40 ng/ml Purified human RNR R2 subunit.
The above reaction mixture (25 μl) containing a test compound at an appropriate final concentration was prepared, and the conversion from CDP to dCDP by RNR was carried out at 37° C. for 30 minutes. The reaction mixture was subjected to a heat treatment at 95° C. for 5 minutes, and centrifuged at 10,000× g for 5 minutes at 4° C. 20 μl of the supernatant was collected and 5 μl of 25 mg/ml snake venom (Sigma) was added thereto. Dephosphorylation reaction was carried out at 37° C. for 60 minutes to allow complete conversion of CDP, ATP and dCDP as the reaction product present in the reaction mixture into CR, AR and CdR, respectively. The reaction mixture was subjected to a heat treatment at 95° C. for 5 minutes, and centrifuged at 10,000× g for 5 minutes at 4° C. 180 μl of acetonitrile was added to 20 μl of the supernatant, and the mixture was centrifuged again at 10,000× g for 5 minutes at 4° C., and the resulting supernatant was used as a sample for analysis. The analysis was performed by high performance liquid chromatography. Analytical conditions are as follows:
Column: Licrospher NH2 (Merck)
Eluent: acetonitrile/water (90:10, V/V).
CdR in the analyzed sample was identified and its concentration was determined by comparison with elution time and peak area with those of CdR at known concentration. A concentration of a test compound which inhibited the RNR activity by 50% under the aforementioned conditions was calculated by comparing a CdR concentration in a sample, obtained from the reaction without drug treatment, with a CdR concentration in a sample obtained from the reaction wherein the test compound at a known concentration was added, and the value obtained was determined as IC50.

In assay [2] the test system is HeLa S3 cells. Description: Test for growth inhibition of HeLa S3 cells. The note with it: read-out: Cell growth inhibition (IC50), 72 hours with test compound, Cell Proliferation Kit II. Here is the method:
Test for Growth Inhibition of Hela S3 Cells
HeLa S3 cells prepared at 1×10^4 cells/ml in MEM culture medium containing 10% fetal bovine serum and 2 mM glutamine were added to each well of a 96-well microtiter plate (0.1 ml for each well). The cells were cultured at 37° C. in a CO2 incubator for 24 hours, and then 0.05 ml of test compound appropriately diluted with the above medium was added to each well, and then the mixture was cultured at 37° C. in a CO2 incubator for 72 hours. After the culture supernatant was removed, each well was washed with 0.1 ml of PBS buffer twice, and 0.1 ml of the aforementioned medium was added to each well again.
Cell Proliferation Kit II (Boehringer Mennheim) was used for measurement of cell number in each well. After a coloring reaction reagent was added, the plate was warmed to 37° C. in a CO2 incubator for 3 hours. Then, absorbances at 490 nm and 655 nm were measured by a microplate reader, and a value (difference of absorbance) was calculated for each well by subtracting the absorbance at […] from the absorbance at 490 nm. By comparing the differences of absorbance for cells without treatment and cells treated with a test compound at a known concentration, a concentration of test compound which inhibited the cell growth by 50% was calculated, and the value obtained was determined as IC50. The values of RNR inhibitory activity obtained in Example 8, and the values of cell growth inhibitory activity obtained in Example 9 are shown in the following tables (the compound numbers used in the tables correspond to the compound numbers shown in the aforementioned tables).

Regarding `O=C(CSc1ccc(O)cc1)NCCSc1ccc(O)cc1`, the IC50 in assay [1] came out at 2.75 µM; in assay [2] it was 7.67 µM.

`Oc1ccc(SCCN(CCF)CCSc2ccc(O)cc2)cc1`: the IC50 in assay [1] worked out at 2.74 µM; in assay [2], 12 µM.

With `Oc1ccc(SCCN(CCSc2ccc(O)cc2)CC(F)(F)F)cc1`, the values for the IC50 in assay [1] and in assay [2] were 0.61 µM and 2.5 µM, respectively.

`CCCC(=O)N(CCSc1ccc(O)cc1)CCSc1ccc(O)cc1`: the IC50 was determined as 3.97 µM in assay [1] and 3.81 µM in assay [2].

Regarding `O=C(CSc1ccc(O)cc1)OCCCOC(=O)CSc1ccc(O)cc1`, the IC50 in assay [1] was 3.98 µM; in assay [2], 50.1 µM.

Turning to `O=C(CSc1ccc(O)cc1)NCCCSc1ccc(O)cc1`, the IC50 in assay [1] worked out at 3.77 µM; in assay [2], 13.4 µM.
